Reference: PubChem BioAssay AID892 (National Center for Advancing Translational Sciences (NCATS), 2007)
The entries are a selection whose mix differs from that of the whole data set. Active and inactive are the calls of the source. Calls follow the shape of the dose curve; as a rule, active = well fitted inhibition curve with a large enough effect; inconclusive = small, poorly fitted or top-dose-only effect; inactive = no such curve, though single readings can be large or run the other way.

Chains of the proteins cited; added tags and fusions are not shown.
UniProt P38398, whole entry: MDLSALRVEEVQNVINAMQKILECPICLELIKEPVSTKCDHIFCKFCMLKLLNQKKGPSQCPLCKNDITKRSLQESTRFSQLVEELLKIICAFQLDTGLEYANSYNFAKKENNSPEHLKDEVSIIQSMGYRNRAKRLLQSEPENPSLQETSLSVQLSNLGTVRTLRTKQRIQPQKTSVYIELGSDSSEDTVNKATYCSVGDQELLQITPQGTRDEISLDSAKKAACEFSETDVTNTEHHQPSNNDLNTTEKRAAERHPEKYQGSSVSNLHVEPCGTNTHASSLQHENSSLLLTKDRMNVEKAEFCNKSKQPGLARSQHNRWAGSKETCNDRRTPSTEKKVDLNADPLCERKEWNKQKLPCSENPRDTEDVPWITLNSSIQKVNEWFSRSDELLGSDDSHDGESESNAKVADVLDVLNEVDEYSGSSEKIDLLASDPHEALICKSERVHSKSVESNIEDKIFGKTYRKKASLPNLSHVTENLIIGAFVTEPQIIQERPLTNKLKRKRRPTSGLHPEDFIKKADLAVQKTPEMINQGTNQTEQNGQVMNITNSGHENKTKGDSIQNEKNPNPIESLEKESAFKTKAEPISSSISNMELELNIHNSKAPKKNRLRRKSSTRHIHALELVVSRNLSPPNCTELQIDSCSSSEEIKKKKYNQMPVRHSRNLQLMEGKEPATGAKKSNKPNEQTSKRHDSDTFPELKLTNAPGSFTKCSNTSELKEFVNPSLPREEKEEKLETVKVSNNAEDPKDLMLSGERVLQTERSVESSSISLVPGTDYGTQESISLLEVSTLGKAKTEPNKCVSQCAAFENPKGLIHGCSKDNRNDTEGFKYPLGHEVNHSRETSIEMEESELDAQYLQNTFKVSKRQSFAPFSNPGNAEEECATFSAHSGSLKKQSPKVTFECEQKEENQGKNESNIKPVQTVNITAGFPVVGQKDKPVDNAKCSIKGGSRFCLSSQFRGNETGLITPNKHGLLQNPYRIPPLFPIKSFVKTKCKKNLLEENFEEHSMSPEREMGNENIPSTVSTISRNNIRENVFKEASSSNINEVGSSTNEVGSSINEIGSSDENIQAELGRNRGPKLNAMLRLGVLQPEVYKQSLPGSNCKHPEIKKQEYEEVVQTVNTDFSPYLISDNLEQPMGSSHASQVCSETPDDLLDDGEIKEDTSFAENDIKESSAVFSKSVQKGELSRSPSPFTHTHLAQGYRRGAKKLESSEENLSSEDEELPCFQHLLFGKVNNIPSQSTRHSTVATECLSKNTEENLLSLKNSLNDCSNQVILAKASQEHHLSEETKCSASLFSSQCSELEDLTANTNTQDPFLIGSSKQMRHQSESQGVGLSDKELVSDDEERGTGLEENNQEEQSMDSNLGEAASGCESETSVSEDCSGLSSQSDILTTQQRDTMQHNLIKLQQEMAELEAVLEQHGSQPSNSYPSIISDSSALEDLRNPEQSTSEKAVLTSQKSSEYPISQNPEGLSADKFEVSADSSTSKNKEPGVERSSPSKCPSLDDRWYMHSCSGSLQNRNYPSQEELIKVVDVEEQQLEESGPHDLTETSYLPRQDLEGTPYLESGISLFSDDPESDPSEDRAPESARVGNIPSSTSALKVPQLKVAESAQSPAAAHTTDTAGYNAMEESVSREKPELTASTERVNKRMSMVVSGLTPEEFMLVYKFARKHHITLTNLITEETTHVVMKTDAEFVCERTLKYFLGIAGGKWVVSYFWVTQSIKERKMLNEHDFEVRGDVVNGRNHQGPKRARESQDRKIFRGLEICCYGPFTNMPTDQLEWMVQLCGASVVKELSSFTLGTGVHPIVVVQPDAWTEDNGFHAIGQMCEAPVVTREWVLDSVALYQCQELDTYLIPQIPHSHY

Molecular target: Breast cancer type 1 susceptibility protein (Homo sapiens) (UniProt P38398)
Experiment: qHTS Assay for Inhibitors of BRCT-Phosphoprotein Interaction (Red Fluorophore)
Conditions: BRCT-phosphopeptide binding, red fluorescence polarization; at 76.9 µM (top of the series)
Method: NIH Molecular Libraries Screening Centers Network [MLSCN]
NIH Chemical Genomics Center [NCGC]
PI Name: Natarajan, Amarnath; University of Texas
A complex of BRCT (C-terminal portion of BRCA1, MW ~35 kDa, His-tagged) and fluorescently labeled pBACH1 phosphorylated 10 aa peptide fragment of BACH1, a helicase implicated in DNA repair, is incubated with library members. Inhibitors of BRCT-pBACH1 binding are detected by a decrease in the fluorescence polarization (FP) of the fluorophore. In order to minimize the effect of fluorescence artifacts and to increase the overall robustness of the screen, the compound library members were incubated in separate reactions with rhodamine-labeled probe-protein complexes. Protein and labeled probes were supplied by Dr. Amarnath Natarajan, Department of Pharmacology and Toxicology, University of Texas Medical Branch Galveston, TX.
Assay Buffer: 16mM Na2HPO4, 4 mM NaH2PO4, 150 mM NaCl, 1 mM EDTA, 1 mM DTT, 0.02% NaN3, and 0.01% Tween 20 at pH 7.3. […]
Three uL of reagents were dispensed to 1536-well Greiner black solid-bottom plates. […] The plates were incubated for 12 min at room temperature, and then read on ViewLux (Perkin-Elmer) High-throughput CCD imager using BODIPY for the rhodamine-labeled decapeptide probe polarization filter sets. […]
% is scaled to controls: 0 for no effect and ±100 for the full control effect.

SMILES | activity change, negative = inhibition
O=[N+]([O-])C(Cl)(Cl)Cl | inactive: -1.77%
CN(CCCl)CCCl | inactive: -3.46%
